High-throughput results deposited in PubChem by Broad Institute.
CAL PDZ FP-1: CAL PDZ peptide-binding inhibitors, primary screen, biochemical, fluorescence polarization, Cer-tagged CAL PDZ, HTS; hit rate 0.02% among 330,000; purified CAL PDZ, TMR-peptide fluorescence polarization, 1 h; inhibition, % at 20 µM; AID 504414, 2011; Golgi-associated PDZ and coiled-coil motif-containing protein (Homo sapiens), Q9HD26;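 active = highest replicate inhibition of at least 40%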;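 note: plate controls were DMSO neutral control wells for no effect and unlabeled competitor peptide control wells for full effect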
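material = purified tagged CAL PDZ domain construct (CerCALP) | buffer or medium = sodium phosphate/NaCl buffer pH 7.4 with TCEP, IgG, Thesit | reagent = TMR-labelled reporter peptide T*-PRC34 bound in PDZ groove | incubation = 1 h room-temperature incubation prior to read | measured by = fluorescence polarization (mP) | evaluation = percent inhibition from loss of millipolarization | control set = unlabelled peptide and DMSO controls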
PglD DTNB: C. jejuni PglD acetyltransferase inhibitors, primary screen, biochemical, DTNB colorimetric, single point; UDP-N-acetylbacillosamine N-acetyltransferase PglD (Campylobacter jejuni); purified PglD enzyme, DTNB colorimetric CoA detection; inhibition, % at 12.5 µM; hit rate 0.098% among 360,000; AID 602405, 2012; in the data active = inhibition above about 16%, passing the limit was not always enough
ARNT TACC3 PPI: disruptors of ARNT/TACC3 protein interaction, primary screen, biochemical, AlphaScreen, single concentration; AlphaScreen His-ARNT PAS-B/GST-TACC3 binding, luminescence; TACC3 fragment carries E629A point mutation; inhibition, % at 9.99 µM; hit rate 0.66% among 390,000; AID 623870, 2012;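 active = mean inhibition of replicates at least 50% and at least half of replicates each reaching 50%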;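 note: 0% = complete ARNT plus TACC3 wells and 100% = ARNT alone without TACC3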
UUG fidelity: modulators of yeast start codon fidelity, primary screen, whole organism, S. cerevisiae, single point, plate reader; S. cerevisiae UUG-firefly luciferase reporter, luminescence/redox ratio; activity score, % at 18.7 µM; actives 0.13% (n = 350,000); AID 602363, 2012;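 active = replicate mean at a twofold rise or more, about +100% in these data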;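 also: firefly luciferase made from a UUG start codon reports start codon fidelity; reporter light over untreated wells divided by growth signal over untreated wells; some hits fall short of that in this replicate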
CAL PDZ FP-2: untagged CAL PDZ binding inhibitors, primary screen, biochemical, fluorescence polarization, HTS | purified CAL PDZ, TMR-peptide fluorescence polarization, 1 h | inhibition, % at 24.9 µM | hit rate 0.92% among 300,000;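 active = mean inhibition of at least 30% with at least half of replicates also reaching 30%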;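 note: 0% = DMSO neutral control and 100% = excess unlabeled competitor peptide PRC23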
Vif imaging: HIV Vif self-association inhibitors, primary screen, imaging, HEK293T, single point; HEK293T cells, Vif self-association by quenched fluorescence, 24 h; inhibition, % at 7.49 µM; hit rate 0.35% among 340,000; in the data active = inhibition above about 50%, passing the limit was not always enough
ARNT Alpha ctr: AlphaScreen signal interference compounds, dose response, artefact control for ARNT-TACC3 interaction inhibitor project, biochemical, luminescence, cherry-pick. shares compounds with ARNT TACC3 PPI. AC50, µM (titrated, usually from 68 µM), for the others: at the top dose activity change, negative = signal decrease. hit rate 50% among 1,200. AID 651705, 2012. His-ARNT PASB-GST AlphaScreen artifact counter-screen;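 active = every separate test run was called active for a drop in luminescence, with AC50 within twice the top valid dose, actives reach about 71 µM in these data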
An asterisk follows results filed as active; . = no result; [ ] = remark or other dose. Sampled rows, rich in hits. Any-hit rate of the full collection: about 1.6%.

Start of the data: the first 2 records, ahead of the listing:
Short forms – A = CAL PDZ FP-1; B = PglD DTNB; C = ARNT TACC3 PPI; D = UUG fidelity; E = CAL PDZ FP-2; F = Vif imaging; G = ARNT Alpha ctr
1. O=C(Cn1cncn1)N/N=C/c1cc([N+](=O)[O-])ccc1O
  A: -1; B: -9; C: 64*; D: -16; E: -2; F: 11; G: 28µM*
2. O=C(c1cc(-c2ccccc2)on1)N1CCC(N2CCOCC2)CC1
  A: .; B: .; C: .; D: .; E: .; F: .; G: 0%[38 µM]

The listing (from the top)
Short forms – A = CAL PDZ FP-1; B = PglD DTNB; C = ARNT TACC3 PPI; D = UUG fidelity; E = CAL PDZ FP-2; F = Vif imaging; G = ARNT Alpha ctr
1. O=C(Cn1cncn1)N/N=C/c1cc([N+](=O)[O-])ccc1O
  A: -1; B: -9; C: 64*; D: -16; E: -2; F: 11; G: 28µM*
2. O=C(c1cc(-c2ccccc2)on1)N1CCC(N2CCOCC2)CC1
  A: .; B: .; C: .; D: .; E: .; F: .; G: 0%[38 µM]
3. Cc1ccc(-c2cc(C(=O)N3CCOCC3)no2)cc1
  A: -3; B: -2; C: 1; D: -69; E: -1; F: 7; G: .
4. CCN(CC)C(=O)[C@H]1CC(CC(=O)NCc2ccc(OC)c(OC)c2)C(=O)N2CCc3c([nH]c4ccccc34)[C@]12C (stereo partly drawn)
  A: 0; B: 1; C: 1; D: -5; E: -4; F: 0; G: .
5. CCN(CC)C(=O)[C@H]1C[C@H](CC(=O)NCc2ccc(OC)c(OC)c2)C(=O)N2CCc3c([nH]c4ccc(Cl)cc34)[C@]12C
  A: 1; B: -2; C: 27*; D: -10; E: -5; F: .; G: -3%
6. CC(C)Nc1nc(NC(C)C)nc(C(=O)OCCO)n1
  A: -1; B: .; C: 57*; D: 0; E: .; F: -10; G: -13%
7. CNC[C@H]1Oc2ncc(C#Cc3cccc(OC)c3)cc2C(=O)N([C@H](C)CO)C[C@H]1C
  A: .; B: -4; C: 10; D: .; E: .; F: .; G: .
8. O=C(N[C@H]1CC[C@H](CCn2cc(-c3ccccn3)nn2)O[C@@H]1CO)c1ccc(F)cc1
  A: .; B: -1; C: 59*; D: -25; E: .; F: .; G: 59µM*
9. COCc1cn(CC[C@H]2CC[C@@H](NC(=O)c3ccccc3)[C@@H](CO)O2)nn1
  A: .; B: -5; C: -15; D: -8; E: .; F: .; G: .
10. O=C(N[C@H]1CC[C@@H](CCn2cc(-c3ccccn3)nn2)O[C@@H]1CO)c1ccccc1
  A: .; B: 9; C: 77*; D: -3; E: .; F: .; G: 41µM*
11. O=C(N[C@H]1CC[C@@H](CCn2cc(-c3ccccn3)nn2)O[C@H]1CO)c1ccccc1
  A: .; B: 5; C: 81*; D: -8; E: .; F: .; G: 33µM*
12. COCc1cn(CC[C@@H]2CC[C@@H](NC(=O)c3ccncc3)[C@@H](CO)O2)nn1
  A: .; B: 2; C: 1; D: -3; E: .; F: .; G: .
13. O=C(N[C@@H]1CC[C@H](CCn2cc(-c3ccccn3)nn2)O[C@H]1CO)c1ccncc1
  A: .; B: 3; C: 57*; D: -13; E: .; F: .; G: 31µM*
14. COc1ccccc1NC(=O)N[C@H]1CC[C@H](CC(=O)N[C@H](C)c2ccccc2)O[C@@H]1CO
  A: .; B: -2; C: -15; D: 0; E: .; F: .; G: .
15. CCCC(=O)Nc1ccc2c(c1)C(=O)N(C)C[C@@H](OC)[C@@H](C)CN(C(=O)C1CCCC1)[C@@H](C)CO2
  A: .; B: -3; C: -3; D: .; E: .; F: .; G: .
16. O=C(N[C@@H]1CC[C@@H](CCn2cc(-c3ccccn3)nn2)O[C@H]1CO)c1ccccc1
  A: .; B: 7; C: 74*; D: -4; E: .; F: .; G: 41µM*
17. CN(C)CC(=O)Nc1ccc2c(c1)[C@H]1C[C@@H](CC(=O)N3CCN(C)CC3)O[C@@H](CO)[C@H]1O2
  A: .; B: 3; C: 1; D: -8; E: .; F: .; G: .
18. CC(=O)N1CCc2[nH]c3ccc(C)cc3c2C1
  A: 0; B: -4; C: 36*; D: -28; E: -3; F: 7; G: -1%
19. Cc1ccc(S(=O)(=O)/N=C2\C=C(Nc3ccc(O)cc3)C(=O)c3ccccc32)cc1
  A: 3; B: 4; C: 54*; D: -28; E: .; F: -26; G: 5.2µM*
20. O=C(COC(=O)c1ccc(O)cc1O)Nc1ccc2ccccc2c1
  A: 0; B: 3; C: 1; D: -7; E: 4; F: 0; G: .
21. O=C(COC(=O)c1ccc(O)cc1O)Nc1nnc(-c2ccccc2)o1
  A: -4; B: 1; C: 60*; D: -9; E: -4; F: 6; G: 47µM*
22. COc1cc(Cc2nccc3cc(OC)c(OC)cc23)c(S(=O)(=O)O)cc1OC
  A: 1; B: -1; C: active; D: -8; E: 1; F: 20; G: -4%
